{"sequences": {"note": "Sequences of proteins named here, by UniProt entry; tags and fusion partners are left off.", "UniProt O75608, whole entry": "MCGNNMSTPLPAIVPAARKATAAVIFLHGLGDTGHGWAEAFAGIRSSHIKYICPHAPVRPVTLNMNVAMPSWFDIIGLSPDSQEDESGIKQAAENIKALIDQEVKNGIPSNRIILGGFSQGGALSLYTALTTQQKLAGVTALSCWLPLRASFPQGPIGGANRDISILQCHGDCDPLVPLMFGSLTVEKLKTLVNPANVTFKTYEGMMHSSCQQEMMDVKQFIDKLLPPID"}, "source": "PubChem BioAssay AID2174", "about": "(The Scripps Research Institute Molecular Screening Center, 2009)", "note": "The entries are a selection whose mix differs from that of the whole data set. Calls of active or inactive are those of the source.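 The calls were made as follows: active = inhibition above the mean of all tested compounds plus 3 SD, set per campaign (cut at about 14% in these data); inactive = the rest.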"}
{"molecular_target": "Acyl-protein thioesterase 1 (Homo sapiens) (UniProt O75608)", "experiment": "LYPLA1 inhibitors, primary screen, counter-screen for PME1 inhibitor project, biochemical, fluorescence polarization, FP-Rh probe ABPP (AID 2174);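 also: inhibitors block serine hydrolase probe labeling of LYPLA1 so polarization falls; 0% = enzyme with DMSO and 100% = wells lacking LYPLA1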", "conditions": "recombinant LYPLA1, FP-Rh probe fluorescence polarization; at 5.9 µM; stronger effect = higher value"}
{"smiles": "CCC(CO)(C(=O)OC1CN2CCC1CC2)c1ccccc1", "note": "(stereo unspecified)", "inhibition": "inactive: 0.88%"}
{"smiles": "COc1cccc(C(=O)N(c2cc(C)cc(C)c2)C2CCN(C(=O)OC(C)(C)C)CC2)c1", "inhibition": "inactive: 0.89%"}
{"smiles": "COc1cc(OC)cc(C(=O)NCC2(N3CCOCC3)CCCCC2)c1", "inhibition": "inactive: 3.22%"}
{"smiles": "CCCOc1ccc(C)cc1CN(CCCl)CCCl", "inhibition": "inactive: 3.94%"}
{"smiles": "CN1CCC(Nc2ccc(Cl)cc2)CC1", "inhibition": "inactive: -3.68%"}
{"smiles": "CCOc1ncccc1C(=O)NCC1(N2CCOCC2)CCCCC1", "inhibition": "inactive: -0.49%"}
{"smiles": "CN1CCC(Nc2ccc(F)c(Cl)c2)CC1", "inhibition": "inactive: -2.9%"}
{"smiles": "CCCOc1ccc(C(=O)NCC2(N(C)C)CCCCC2)cc1", "inhibition": "inactive: -1.63%"}
{"smiles": "CC(C)(C)OC(=O)N1CCC(Nc2ccccc2)CC1", "inhibition": "inactive: 0.19%"}
{"smiles": "O=C(O)C1(Nc2ccccc2)CCN(Cc2ccccc2)CC1", "inhibition": "inactive: -3.64%"}
{"smiles": "CCN1CCC(Nc2cccc(F)c2)CC1", "inhibition": "inactive: -0.1%"}
{"smiles": "O=C(NCC1(N2CCCCC2)CCCCC1)c1ccco1", "inhibition": "inactive: 3.74%"}
{"smiles": "CN(C)c1ccc(C(=O)NCC2(N3CCCCC3)CCCCC2)cc1", "inhibition": "inactive: 2.17%"}
{"smiles": "COc1cc(OC)cc(C(=O)NCC2(N3CCCCC3)CCCCC2)c1", "inhibition": "inactive: 0.23%"}
{"smiles": "Cc1ccc(C(=O)NCC2(N3CCCCC3)CCCCC2)o1", "inhibition": "inactive: 5.5%"}
{"smiles": "Fc1ccccc1NC1CCN(Cc2ccccc2)CC1", "inhibition": "inactive: -2.17%"}
{"smiles": "c1ccc(CN2CCC(Nc3ccccc3)CC2)cc1", "inhibition": "inactive: 2.39%"}
{"smiles": "CCCN1CCC(Nc2cc(OC)cc(OC)c2)CC1", "inhibition": "inactive: 0.37%"}
{"smiles": "CN(C)C1(CNC(=O)c2cccc(C#N)c2)CCCCC1", "inhibition": "inactive: 3.51%"}
{"smiles": "CC(C)(C)OC(=O)N1CCC(N(C(=O)c2ccccc2)c2ccc(Cl)cc2)CC1", "inhibition": "inactive: -1.52%"}
{"smiles": "N#Cc1ccc(C(=O)NCC2(N3CCCCC3)CCCCC2)cc1", "inhibition": "inactive: -3.35%"}
{"smiles": "N/C(=N\\O)c1c(N)no[n+]1[O-]", "inhibition": "inactive: -3.23%"}
{"smiles": "CCOC(=O)N1CCC(Nc2ccc(C)cc2)CC1", "inhibition": "inactive: -0.05%"}
{"smiles": "O=C(OC1CN2CCC1CC2)C1c2ccccc2C=Cc2ccccc21", "note": "(stereo unspecified)", "inhibition": "inactive: 0.95%"}
{"smiles": "CCc1cc(C(=O)NCC2(N3CCCCC3)CCCCC2)sc1C", "inhibition": "inactive: -0.32%"}
{"smiles": "O=C(NCC1(N2CCOCC2)CCCCC1)c1cc(Br)ccc1Cl", "inhibition": "inactive: 2.3%"}
{"smiles": "COc1ccc(C(=O)NCC2(N3CCOCC3)CCCCC2)cc1OC", "inhibition": "inactive: -0.48%"}
{"smiles": "O=C(NCC1(N2CCCCC2)CCCCC1)c1cncc(Br)c1", "inhibition": "inactive: 2.12%"}
{"smiles": "CN1CCC(Nc2cccc(F)c2)CC1", "inhibition": "inactive: -2.2%"}
{"smiles": "COc1ccc(CN(CCCl)CCCl)cc1Cl", "inhibition": "inactive: -3.09%"}
{"smiles": "CN(C)c1cccc(C(=O)NCC2(N3CCCCC3)CCCCC2)c1", "inhibition": "inactive: 1.91%"}
{"smiles": "CC(C)c1ccc(NC2CCN(C(=O)OC(C)(C)C)CC2)cc1", "inhibition": "inactive: 0.21%"}
{"smiles": "COc1cc(OC)c(C(=O)NCC2(N(C)C)CCCCC2)cc1OC", "inhibition": "inactive: -1.48%"}
{"smiles": "O=C(NCC1(N2CCCCC2)CCCCC1)c1cccc(C(F)(F)F)c1", "inhibition": "inactive: 1.41%"}
{"smiles": "COc1ccc(NC2CCN(C(=O)OC(C)(C)C)CC2)cc1", "inhibition": "inactive: -1.2%"}
{"smiles": "CN1CCN(CCOC(=O)C(O)(c2ccccc2)c2ccccc2)CC1", "inhibition": "inactive: -1.23%"}
{"smiles": "O=C(NCC1(N2CCOCC2)CCCCC1)c1cc(=O)[nH]c2ccccc12", "inhibition": "inactive: -3.23%"}
{"smiles": "COc1cc(C(=O)NCC2(N3CCCCC3)CCCCC2)ccc1OC(F)F", "inhibition": "inactive: -0.22%"}
{"smiles": "O=C(NCC1(N2CCCCC2)CCCCC1)c1ccc(OC(F)F)cc1", "inhibition": "inactive: -5.77%"}
{"smiles": "O=C(NCC1(N2CCCCC2)CCCCC1)c1cccc([N+](=O)[O-])c1", "inhibition": "inactive: -5.96%"}
{"smiles": "CCN1CCC(Nc2ccc(Cl)cc2)CC1", "inhibition": "inactive: 0.4%"}
{"smiles": "N#CC1(Nc2ccccc2)CCN(CCc2ccccc2)CC1", "inhibition": "inactive: 0.17%"}
{"smiles": "CCOC(=O)N1CCC(Nc2cccc(C)c2)CC1", "inhibition": "inactive: 1.78%"}
{"smiles": "Cc1ccc(OCC(C)C)c(CN(CCCl)CCCl)c1", "inhibition": "inactive: 0.21%"}
{"smiles": "CCOc1ccc(C)cc1CN(CCCl)CCCl", "inhibition": "inactive: 2.73%"}
{"smiles": "O=C(NCC1(N2CCCCC2)CCCCC1)c1ccc(F)cc1", "inhibition": "inactive: 0.53%"}
{"smiles": "COc1ccc(NC2CCN(CCc3ccccc3)CC2)c(OC)c1", "inhibition": "inactive: 2.05%"}
{"smiles": "O=C(NCC1(N2CCOCC2)CCCCC1)c1cc2ccccc2o1", "inhibition": "inactive: 1.85%"}
{"smiles": "O=C(NCC1(N2CCCCC2)CCCCC1)c1ccc(Cl)nc1", "inhibition": "inactive: 1.35%"}
{"smiles": "Cc1cc(C)cc(N(C(=O)c2ccccc2)C2CCN(C(=O)OC(C)(C)C)CC2)c1", "inhibition": "inactive: 3.97%"}
{"smiles": "CCOC(=O)N1CCC(Nc2ccc(OC)cc2)CC1", "inhibition": "inactive: 0.64%"}
{"smiles": "O=C(OC1CN2CCC1CC2)C1c2ccccc2Oc2ccccc21", "note": "(stereo unspecified)", "inhibition": "inactive: -0.12%"}
{"smiles": "O=C(NCC1(N2CCCCC2)CCCCC1)c1ccc(Cl)s1", "inhibition": "inactive: 0.38%"}
{"smiles": "N#CC1(Nc2ccccc2)CCN(Cc2ccccc2)CC1", "inhibition": "inactive: 1.65%"}
{"smiles": "COc1ccc(Cl)cc1C(=O)NCC1(N2CCOCC2)CCCCC1", "inhibition": "inactive: 2.92%"}
{"smiles": "O=C(NCC1(N2CCCCC2)CCCCC1)c1ccc(=O)[nH]c1", "inhibition": "inactive: 3.31%"}
{"smiles": "O=C(NCC1(N2CCCCC2)CCCCC1)c1cccs1", "inhibition": "inactive: -1.48%"}
{"smiles": "COc1ccc(C(=O)NCC2(N3CCCCC3)CCCCC2)cc1", "inhibition": "inactive: 6.86%"}
{"smiles": "COc1ccc(C(=O)NCC2(N3CCCCC3)CCCCC2)c(OC)c1OC", "inhibition": "inactive: -5.5%"}
{"smiles": "CC(C)(C)OC(=O)N1CCC(N(C(=O)c2ccccc2)c2ccc(F)cc2)CC1", "inhibition": "inactive: -2.08%"}
{"smiles": "CSc1ccccc1C(=O)NCC1(N2CCCCC2)CCCCC1", "inhibition": "inactive: -0.09%"}
